Results from patent US9731027B2, “Somatostatin-dopamine chimeric analogs” (Ipsen Pharma S.A.S., priority 2012, dated 2017).
Bridge positions count the residues as written; N and C are the ends. Square brackets hold non-standard residues; d marks the D form. Peptide text beside a SMILES is read from it. * marks the point of attachment. X2 = CN1C[C@H](CSCC(=O)*)C[C@@H]2c3cccc4[nH]cc(c34)C[C@H]21; 4Pal = N[C@@H](Cc1ccncc1)C(=O)O

Sequences of proteins named here, by UniProt entry; tags and fusion partners are left off. A change or cut given only in a name is not applied to a line headed by its entry.
UniProt P30874: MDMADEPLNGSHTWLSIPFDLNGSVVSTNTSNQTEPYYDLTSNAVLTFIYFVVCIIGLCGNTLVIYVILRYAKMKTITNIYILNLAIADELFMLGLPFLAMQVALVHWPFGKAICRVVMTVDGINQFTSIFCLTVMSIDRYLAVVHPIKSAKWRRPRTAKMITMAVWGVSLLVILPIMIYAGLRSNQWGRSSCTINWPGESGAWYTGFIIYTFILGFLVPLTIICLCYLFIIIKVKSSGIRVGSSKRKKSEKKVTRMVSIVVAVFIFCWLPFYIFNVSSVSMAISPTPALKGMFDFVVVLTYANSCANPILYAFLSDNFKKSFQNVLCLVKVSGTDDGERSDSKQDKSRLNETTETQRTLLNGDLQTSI
UniProt P14416, whole entry: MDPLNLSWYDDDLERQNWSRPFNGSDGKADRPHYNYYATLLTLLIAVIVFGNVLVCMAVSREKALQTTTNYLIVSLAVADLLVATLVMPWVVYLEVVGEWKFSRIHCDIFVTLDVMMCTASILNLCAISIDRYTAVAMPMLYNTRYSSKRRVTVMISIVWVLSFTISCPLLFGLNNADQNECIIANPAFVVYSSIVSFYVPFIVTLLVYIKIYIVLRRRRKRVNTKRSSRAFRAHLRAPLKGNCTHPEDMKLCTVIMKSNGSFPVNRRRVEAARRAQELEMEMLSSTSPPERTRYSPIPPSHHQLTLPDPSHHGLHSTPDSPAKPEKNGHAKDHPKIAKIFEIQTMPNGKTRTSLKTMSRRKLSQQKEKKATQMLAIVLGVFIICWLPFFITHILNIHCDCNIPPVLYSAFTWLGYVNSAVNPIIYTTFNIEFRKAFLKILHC

Assays:
[1] = target: T1, hSSTR2 (Homo sapiens, UniProt P30874); experiment: Intracellular calcium mobilization assay (FLIPR Calcium 4), hSSTR2; format: cell-based; details: receptor not named; fits hSSTR2 values
T1 construct: host or cells: 'Cells expressing hSSTR2'

[2] = target: T2, hDRD2 (Homo sapiens, UniProt P14416); experiment: Intracellular calcium mobilization assay (FLIPR Calcium 4), hDRD2; format: cell-based
T2 construct: host or cells: 'Cells expressing ... hDRD2'

Compound | EC50 fold lower than Reference Compound A [1] | EC50 [2] | Emax ([2]; read-out: hDRD2 % Emax ± SEM)
C[C@@H](O)[C@@H]1NC(=O)[C@H](CCCCN)NC(=O)[C@@H](Cc2c[nH]c3ccccc23)NC(=O)[C@H](Cc2ccncc2)NC(=O)[C@H](Cc2ccccc2)NC(=O)[C@H](CCCNC(=N)N)NC(=O)[C@H](NC(=O)CSC[C@@H]2C[C@@H]3c4cccc5[nH]cc(c45)C[C@H]3N(C)C2)CCCCNC(=O)[C@H](Cc2ccccc2)NC1=O [Compound 24, Dop1-cyclo(DLys-Arg-Phe-4Pal-DTrp-Lys-Thr-Phe)] (X2-[dK]RF[4Pal][dW]KTF; lactam 1-C) | about 9 fold |  | 
C[C@@H](O)[C@@H]1NC(=O)[C@H](CCCCN)NC(=O)[C@@H](Cc2c[nH]c3ccccc23)NC(=O)[C@H](Cc2ccccc2)NC(=O)[C@H](Cc2ccccc2)NC(=O)[C@H](CCCNC(=N)N)NC(=O)[C@H](NC(=O)CSC[C@@H]2C[C@@H]3c4cccc5[nH]cc(c45)C[C@H]3N(C)C2)CCCCNC(=O)[C@H](Cc2ccccc2)NC1=O [Compound 44, Dop1-cyclo(DLys-Arg-Phe-Phe-DTrp-Lys-Thr-Phe)] |  | 232 ± 33.1 nM | 59.9 ± 0.5%
